Earlier results as cited in US12180215B2, “Substituted pyrrolo[3,4-d]imidazoles as JAK inhibitors” (HENAN MEDINNO PHARMACEUTICAL TECHNOLOGY CO., LTD., priority 2019, dated 2024).

The chains behind the UniProt entries cited, without tags or fusion partners.
UniProt P29597, whole entry, species assumed: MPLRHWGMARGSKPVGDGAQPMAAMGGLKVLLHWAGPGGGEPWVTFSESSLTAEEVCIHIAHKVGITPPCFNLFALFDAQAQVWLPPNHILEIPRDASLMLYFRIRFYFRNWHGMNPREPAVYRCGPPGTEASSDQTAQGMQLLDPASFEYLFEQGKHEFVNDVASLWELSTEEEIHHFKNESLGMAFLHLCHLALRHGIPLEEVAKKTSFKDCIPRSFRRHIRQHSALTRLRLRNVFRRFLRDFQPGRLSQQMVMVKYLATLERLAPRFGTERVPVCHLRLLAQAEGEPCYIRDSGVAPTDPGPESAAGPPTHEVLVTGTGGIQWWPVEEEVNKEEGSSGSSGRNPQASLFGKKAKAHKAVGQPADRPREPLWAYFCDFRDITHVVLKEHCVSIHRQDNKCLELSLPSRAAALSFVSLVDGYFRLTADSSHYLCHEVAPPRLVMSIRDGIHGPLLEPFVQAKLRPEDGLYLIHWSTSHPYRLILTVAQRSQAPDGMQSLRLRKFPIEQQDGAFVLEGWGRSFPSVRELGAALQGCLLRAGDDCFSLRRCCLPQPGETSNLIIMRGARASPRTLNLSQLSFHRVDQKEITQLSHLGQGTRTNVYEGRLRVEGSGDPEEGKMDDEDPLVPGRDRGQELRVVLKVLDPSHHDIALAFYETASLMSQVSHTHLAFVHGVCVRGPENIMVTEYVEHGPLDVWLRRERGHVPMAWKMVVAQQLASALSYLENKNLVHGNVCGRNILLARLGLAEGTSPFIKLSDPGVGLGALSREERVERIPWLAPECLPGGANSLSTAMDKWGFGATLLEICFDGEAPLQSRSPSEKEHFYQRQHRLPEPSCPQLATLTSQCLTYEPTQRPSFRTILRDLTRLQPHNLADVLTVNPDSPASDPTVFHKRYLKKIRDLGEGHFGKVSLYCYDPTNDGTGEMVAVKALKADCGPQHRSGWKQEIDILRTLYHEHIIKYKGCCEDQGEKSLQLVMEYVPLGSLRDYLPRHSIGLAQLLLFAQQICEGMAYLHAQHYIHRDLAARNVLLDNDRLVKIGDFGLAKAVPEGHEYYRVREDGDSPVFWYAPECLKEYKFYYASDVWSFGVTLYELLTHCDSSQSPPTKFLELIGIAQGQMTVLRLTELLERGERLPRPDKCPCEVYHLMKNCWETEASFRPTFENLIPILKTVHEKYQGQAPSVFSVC

Target: TYK2 (Homo sapiens, UniProt P29597)
Conditions: background section; cited from earlier work

O=C(Nc1nc2cccc(-c3ccc(CN4CCS(=O)(=O)CC4)cc3)n2n1)C1CC1 [reference compound]
IC50: 116 nM
